Measurements as given in ChEMBL document CHEMBL2417445, “Access to 7β-analogs of codeine with mixed μ/δ agonist activity via 6,7-α-epoxide opening” (Bioorg Med Chem Lett, 2013).

Amino acid sequences for entries named in this document (tags omitted).
UniProt P41143, whole entry: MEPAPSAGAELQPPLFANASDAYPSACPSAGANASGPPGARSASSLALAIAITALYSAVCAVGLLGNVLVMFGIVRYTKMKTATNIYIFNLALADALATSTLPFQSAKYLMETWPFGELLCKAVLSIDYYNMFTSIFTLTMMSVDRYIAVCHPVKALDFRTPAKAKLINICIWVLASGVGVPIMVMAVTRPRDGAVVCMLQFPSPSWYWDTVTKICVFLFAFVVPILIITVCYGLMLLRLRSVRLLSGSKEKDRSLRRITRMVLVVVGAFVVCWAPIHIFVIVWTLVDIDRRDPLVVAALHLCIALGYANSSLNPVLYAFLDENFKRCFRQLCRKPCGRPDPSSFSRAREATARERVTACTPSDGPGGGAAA

Target: Delta-type opioid receptor (Homo sapiens, UniProt P41143)
Assay: Agonist activity at human DOR assessed as inhibition of forskolin-stimulated cAMP accumulation after 30 mins by cell based TR-FRET assay
Assay type: functional

C[C@@H](NC(=O)[C@@H](N)Cc1ccc(O)cc1)C(=O)NCC(=O)N(C)[C@@H](Cc1ccccc1)C(=O)NCCO [DAMGO]
EC50: 400 nM
